## Antibody variant affinities, Ab-14 light chain, assay 1

All variants were tested on one target, the spike HR2 peptide PDVDLGDISGINAS (SARS-CoV-2).

Each scFv is VH, the linker GGGGSGGGGSGGGGS, VL, as in the parent Ab-14, and differs from it in the CDRs of the light chain only.
VH: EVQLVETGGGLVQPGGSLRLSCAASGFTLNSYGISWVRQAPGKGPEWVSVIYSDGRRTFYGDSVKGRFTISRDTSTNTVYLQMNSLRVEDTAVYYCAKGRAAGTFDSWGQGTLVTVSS
VL: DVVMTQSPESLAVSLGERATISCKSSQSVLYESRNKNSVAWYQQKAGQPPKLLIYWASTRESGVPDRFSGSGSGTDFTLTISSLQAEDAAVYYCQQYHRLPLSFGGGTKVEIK

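AAYL50 was designed without a model: most single CDR substitutions and a random sample of double and triple ones. Affinity was read by AlphaSeq, a pooled yeast mating assay with surface-displayed partners. The frequency of each diploid, read from paired DNA barcodes, reflects how well the two displayed proteins bind. Each replicate has its own calibration line, from reference interactions of the BCL2 family. Each pool was mated in three replicate cultures.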

Each variant's VL is given in full. Values are log10 of the apparent Kd in nM; lower means stronger binding. A mean of the replicates is given; it leaves out those without a signal. Where no diploid with the target was found in any replicate, the entry reads "nd": below detection, most likely a poor binder, though not proof of it. Parent in this assay: reference entry 0.65, copy in this library 1.68. Nonspecific signal, from three strains lacking the peptide, appeared in 18% of pairings of library AAYL50, centred on 4.19 (5% of these signals below 2.99); values are not corrected for it. For each scFv, signals with the empty controls are counted beside the result.

VL,"mean, log10 nM",seen in,empty controls
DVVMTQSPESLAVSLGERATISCKSSQSVLYESRNKNSVAWYQQKAGQPPKLLIYWASTREFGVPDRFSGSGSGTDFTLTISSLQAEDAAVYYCHQYHVLPLSFGGGTKVEIK,0.85,3/3,4/9
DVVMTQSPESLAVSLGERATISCKSSQSVLYESRNKNSVAWYQQKAGQPPKLLIYWACTRESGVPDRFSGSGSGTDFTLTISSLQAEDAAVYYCQQYARLPYSFGGGTKVEIK,nd,0/3,0/9
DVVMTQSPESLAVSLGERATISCDSSQSVLWEVRNKNSVAWYQQKAGQPPKLLIYWASTRESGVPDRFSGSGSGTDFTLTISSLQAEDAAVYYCQQYHRLPLSFGGGTKVEIK,5.96,1/3,5/9
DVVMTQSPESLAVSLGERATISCKVSQSVLYESRNKNHVAWYQQKAGQPPKLLIYWACTRESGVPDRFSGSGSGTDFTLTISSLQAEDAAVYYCQQYHRLPLSFGGGTKVEIK,nd,0/3,0/9
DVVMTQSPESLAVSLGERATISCNSSQSVLYESRNKNSVAWYQQKAGQPPKLLIYWASTRTSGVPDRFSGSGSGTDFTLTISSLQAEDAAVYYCQQNHRLPLSFGGGTKVEIK,4.42,1/3,2/9
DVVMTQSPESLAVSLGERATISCKSSQSVLYWSRNKNSVRWYQQKAGQPPKLLIYWASTRESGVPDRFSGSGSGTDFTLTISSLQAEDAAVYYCQFYHRLPLSFGGGTKVEIK,nd,0/3,0/9
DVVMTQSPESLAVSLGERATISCKSSQSVGYESRNKNSVAWYQQKAGQPPKLLIYVASTRASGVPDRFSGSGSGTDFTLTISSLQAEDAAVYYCQQYHRLPLSFGGGTKVEIK,1.76,3/3,4/9
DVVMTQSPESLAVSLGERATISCKVSQSVLYESRNKNSVAWYQQKAGQPPKLLIYWASTRESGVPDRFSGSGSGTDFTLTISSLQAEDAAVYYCQQYHFKPLSFGGGTKVEIK,4.04,3/3,5/9
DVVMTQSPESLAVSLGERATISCKSSQSVLYEARNKNSVAWYQQKAGQPPKLLIYWASNRESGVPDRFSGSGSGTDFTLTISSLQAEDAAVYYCQQYHRLPRSFGGGTKVEIK,nd,0/3,1/9
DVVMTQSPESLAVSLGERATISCISYQSVLYESRNKISVAWYQQKAGQPPKLLIYWASTRESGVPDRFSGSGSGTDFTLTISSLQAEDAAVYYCQQYHRLPLSFGGGTKVEIK,nd,0/3,0/9
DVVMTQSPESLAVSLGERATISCKSSQSVLYESWVKNSVAWYQQKAGQPPKLLIYLASTRESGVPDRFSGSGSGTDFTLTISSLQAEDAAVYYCQQYHRLPLSFGGGTKVEIK,1.85,3/3,0/9
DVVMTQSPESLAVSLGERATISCFSSQSVLIESRNKNSVAWYQQKAGQPPKLLIYWASCRESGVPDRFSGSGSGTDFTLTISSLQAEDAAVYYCQQYHRLPLSFGGGTKVEIK,2.21,3/3,0/9
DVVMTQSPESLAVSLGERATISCKSSQSVLYESRNKNSVAWYQQKAGQPPKLLIYWASTTEDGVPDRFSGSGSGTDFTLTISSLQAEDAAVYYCQQYHRLPLMFGGGTKVEIK,2.53,3/3,1/9
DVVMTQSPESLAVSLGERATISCKSSQSVLYESRNNNKPAWYQQKAGQPPKLLIYWASTRESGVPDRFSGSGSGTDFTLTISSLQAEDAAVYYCQQYHRLPLSFGGGTKVEIK,3.66,1/3,1/9
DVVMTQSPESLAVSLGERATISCKSSQSKLDESRNKNSVAWYQQKAGQPPKLLIYWASTRESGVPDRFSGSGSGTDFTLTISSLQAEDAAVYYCQQYHRLPLSFGGGTKVEIK,0.80,3/3,1/9
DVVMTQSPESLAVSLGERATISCKSSQSVLYDSRNKNSVAWYQQKAGQPPKLLIYWDSTQESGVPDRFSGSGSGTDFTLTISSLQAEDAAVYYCQQYHRLPLSFGGGTKVEIK,3.63,1/3,2/9
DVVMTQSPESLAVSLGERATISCKSSQSVLPESRNKNSVAWYQQKAGQPPKLLIYWASTRESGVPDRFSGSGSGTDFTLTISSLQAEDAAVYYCQQYNALPLSFGGGTKVEIK,0.88,3/3,4/9
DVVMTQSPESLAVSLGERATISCKSSQSFLYESRNKNSLAWYQQKAGQPPKLLIYWASTRSSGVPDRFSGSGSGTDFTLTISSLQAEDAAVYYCQQYHRLPLSFGGGTKVEIK,nd,0/3,3/9
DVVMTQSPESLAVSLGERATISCKSSQSVLYESRNENSVAWYQQKAGQPPKLLIYWASTQEWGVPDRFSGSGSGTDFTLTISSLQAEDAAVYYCQQYHRLPLSFGGGTKVEIK,3.47,3/3,3/9
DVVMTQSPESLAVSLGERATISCKSSQSVLYESRNKNSVFWYQQKAGQPPKLLIYWASTRESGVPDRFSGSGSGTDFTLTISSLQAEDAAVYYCQQIHRYPLSFGGGTKVEIK,4.44,2/3,1/9
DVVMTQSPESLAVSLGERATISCKSSQSPLYESRNKNSVAWYQQKAGQPPKLLIYWHSTRESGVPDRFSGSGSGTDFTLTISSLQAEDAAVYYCQQYHRLNLSFGGGTKVEIK,4.10,2/3,1/9
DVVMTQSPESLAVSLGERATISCLSSQSVDYEARNKNSVAWYQQKAGQPPKLLIYWASTRESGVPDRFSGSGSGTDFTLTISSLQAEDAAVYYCQQYHRLPLSFGGGTKVEIK,1.56,3/3,3/9
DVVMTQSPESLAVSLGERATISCKSSQIKLYESRNTNSVAWYQQKAGQPPKLLIYWASTRESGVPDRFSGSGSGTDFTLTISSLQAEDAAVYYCQQYHRLPLSFGGGTKVEIK,0.94,3/3,0/9
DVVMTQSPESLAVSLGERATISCKSSQSVLYNSRNKNSVAWYQQKAGQPPKLLIYWASTRESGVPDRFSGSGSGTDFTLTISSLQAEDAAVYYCRGYHRLPLSFGGGTKVEIK,nd,0/3,1/9
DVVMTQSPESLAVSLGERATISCKSSQSVLYESRNKNSVAWYQQKAGQPPKLLIYWVSTRESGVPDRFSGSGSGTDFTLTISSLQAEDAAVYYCQQYHSLPLSFGGGTKVEIK,nd,0/3,0/9
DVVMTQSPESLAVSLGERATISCKSDQSVWYESRNKNSCAWYQQKAGQPPKLLIYWASTRESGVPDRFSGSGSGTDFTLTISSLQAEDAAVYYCQQYHRLPLSFGGGTKVEIK,2.30,2/3,1/9

Data: MIT Lincoln Laboratory AlphaSeq set, Engelhart et al. 2022, doi:10.1038/s41597-022-01779-4, as distributed in FLAb.